Key:
[1] = target: vasopressin type 2 receptor (V2R) (UniProt P30518)
[2] = target: chimeric V2R harboring the carboxy-terminal tail of the β2-adrenergic receptor (V2β2AR)
[3] = target: vasopressin type 2 receptor (V2R) (UniProt P30518); remark: listed apart in the source

- potency of AVP for recruitment of Rluc-mGs to early endosomes (EbBRET with rGFP-Rab5), cells expressing V2R [1]: -8.65 LogEC50
- potency of AVP for recruitment of Rluc-mGs to the plasma membrane (EbBRET with rGFP-CAAX), cells expressing V2R [1]: -8.07 LogEC50
- potency of AVP for recruitment of Rluc-mGsq to early endosomes (EbBRET with rGFP-Rab5), cells expressing V2R [1]: -8.44 LogEC50
- potency of AVP for recruitment of Rluc-mGsq to the plasma membrane (EbBRET with rGFP-CAAX), cells expressing V2R [1]: -7.88 LogEC50
- transduction coefficient (operational model) of AVP for recruitment of Rluc-mGs to early endosomes, cells expressing V2R [1]: 8.63 Logτ/Ka
- transduction coefficient (operational model) of AVP for recruitment of Rluc-mGs to the plasma membrane, cells expressing V2R [1]: 7.98 Logτ/Ka
- transduction coefficient (operational model) of AVP for recruitment of Rluc-mGsq to early endosomes, cells expressing V2R [1]: 8.31 Logτ/Ka
- transduction coefficient (operational model) of AVP for recruitment of Rluc-mGsq to the plasma membrane, cells expressing V2R [1]: 7.9 Logτ/Ka
- potency of AVP for recruitment of Rluc-mGs to early endosomes (EbBRET with rGFP-Rab5), cells expressing V2β2AR [2]: -8.34 LogEC50
- potency of AVP for recruitment of Rluc-mGs to the plasma membrane (EbBRET with rGFP-CAAX), cells expressing V2β2AR [2]: -8.07 LogEC50
- transduction coefficient (operational model) of AVP for recruitment of Rluc-mGs to early endosomes, cells expressing V2β2AR [2]: 8.31 Logτ/Ka
- potency of AVP for V2R-driven recruitment of Rluc-mGs to early endosomes (EbBRET with rGFP-Rab5), parental HEK293 cells, 45 minutes [3]: -8.37 LogEC50
- potency of AVP for V2R-driven recruitment of Rluc-mGs to early endosomes (EbBRET with rGFP-Rab5), Δβarr1/2 HEK293 cells, 45 minutes [3]: -8.34 LogEC50
- potency of AVP for V2R-driven recruitment of Rluc-mGs to the plasma membrane (EbBRET with rGFP-CAAX), parental HEK293 cells, 10 minutes [3]: -7.9 LogEC50
- potency of AVP for V2R-driven recruitment of Rluc-mGs to the plasma membrane (EbBRET with rGFP-CAAX), Δβarr1/2 HEK293 cells, 10 minutes [3]: -7.99 LogEC50
- potency of AVP for V2R-driven recruitment of Rluc-mGsq to early endosomes (EbBRET with rGFP-Rab5), parental HEK293 cells, 45 minutes [3]: -8.38 LogEC50
- potency of AVP for V2R-driven recruitment of Rluc-mGsq to early endosomes (EbBRET with rGFP-Rab5), Δβarr1/2 HEK293 cells, 45 minutes [3]: -8.32 LogEC50
- potency of AVP for V2R-driven recruitment of Rluc-mGsq to the plasma membrane (EbBRET with rGFP-CAAX), parental HEK293 cells, 10 minutes [3]: -7.81 LogEC50
- potency of AVP for V2R-driven recruitment of Rluc-mGsq to the plasma membrane (EbBRET with rGFP-CAAX), Δβarr1/2 HEK293 cells, 10 minutes [3]: -7.95 LogEC50
Substance: arginine vasopressin (AVP) (peptide)

Reference: paper doi:10.1101/2023.04.01.535208
